Assay results: article PMC9254107, “The Toxoplasma glucan phosphatase TgLaforin utilizes a distinct functional mechanism that can be exploited by therapeutic inhibitors” (The Journal of Biological Chemistry, 2022)

Legend:
[1] = molecular target: T1, PTP1B (Homo sapiens, UniProt P18031); assay: pNPP phosphatase assay; type: biochemical
T1 sequence (P18031 1-435): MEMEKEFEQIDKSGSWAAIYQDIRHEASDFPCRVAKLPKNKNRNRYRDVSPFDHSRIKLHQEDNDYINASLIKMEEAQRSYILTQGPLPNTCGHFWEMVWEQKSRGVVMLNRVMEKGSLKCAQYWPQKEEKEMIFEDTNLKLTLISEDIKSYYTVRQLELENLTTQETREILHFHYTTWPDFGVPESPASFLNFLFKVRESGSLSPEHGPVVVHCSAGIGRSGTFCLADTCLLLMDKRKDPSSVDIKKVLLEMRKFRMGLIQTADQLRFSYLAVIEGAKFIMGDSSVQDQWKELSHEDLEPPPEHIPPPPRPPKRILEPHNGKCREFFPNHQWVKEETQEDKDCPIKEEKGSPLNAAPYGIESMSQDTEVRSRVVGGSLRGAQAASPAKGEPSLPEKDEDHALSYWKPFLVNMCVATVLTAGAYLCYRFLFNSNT

[2] = test system: calf intestinal phosphatase (CIP); type: biochemical; details: pNPP assay

Structure (SMILES): O=C(Nc1ccc(Oc2ccccc2)cc1)C(=O)Nc1ccccc1NC(=O)C(c1ccccc1)S(=O)(=O)O (centres unmarked) [L319-21-M49, 2-oxo-2-((2-(2-oxo-2-((4-phenoxyphenyl)amino)acetamido)phenyl)amino)-1-phenylethanesulfonic acid]
- selectivity toward TgLaforin compared to PTP1B [1]: at least 100 fold
- selectivity toward TgLaforin compared to CIP [2]: at least 100 fold
